Among the data in patent US20250275988A1, “FORMULATION FOR TREATING URINARY SYSTEM DISORDERS” (WATERSHED MEDICAL, INC., priority 2022, published 2025) are Density values, retold here.

The data set can be described thus: density and max drug loading of antimicrobial agents considered for carrier particles. The class given is physicochemical. Particulars: Table 7.

Cefoperazone-sulbactam gave a Density of 1.8 g/mL.
